ChEMBL document CHEMBL3817780, “Structure-Based Design of 1,4-Dibenzoylpiperazines as β-Catenin/B-Cell Lymphoma 9 Protein-Protein Interaction Inhibitors” (ACS Med Chem Lett, 2016)

Columns and labels:
[1] = organism: Homo sapiens; assay: Selectivity ratio of Ki for beta-catenin D145A mutant (138 to 686 residues)(unknown origin)/N-terminally fluorescein-labeled human BCL9 (350 to 375 residues) interaction to Ki for wild type beta-catenin (unknown origin)/N-terminally biotinylated human BCL9 (350 to 375 residues) interaction
[2] = organism: Homo sapiens; assay: Selectivity ratio of Ki for beta-catenin E155A mutant (138 to 686 residues)(unknown origin)/N-terminally fluorescein-labeled human BCL9 (350 to 375 residues) interaction to Ki for wild type beta-catenin (unknown origin)/N-terminally biotinylated human BCL9 (350 to 375 residues) interaction

`Cl.Cl.O=C(c1cc(F)cc(N2CCNCC2)c1)N1CCN(C(=O)c2ccc(O[C@H]3CCNC3)c(C3CCCCC3)c2)CC1` showed a Ratio Ki [1] of 6 and a Ratio Ki [2] of 6.
